Experimental data as given in PubChem BioAssay AID571 (The Scripps Research Institute Molecular Screening Center, 2007).
The list shows a part of the results, in another mix than the full data. Some results for these compounds are left out of this collection, so the calls shown say nothing about other tests. Activity calls are given as the source filed them.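 The calls were made as follows: active = inhibition above a set limit, the mean inhibition across every tested compound plus 3 SD (cut at about 29% in these data); inactive = the rest.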

The chains behind the UniProt entries cited, without tags or fusion partners.
UniProt P28566, whole entry: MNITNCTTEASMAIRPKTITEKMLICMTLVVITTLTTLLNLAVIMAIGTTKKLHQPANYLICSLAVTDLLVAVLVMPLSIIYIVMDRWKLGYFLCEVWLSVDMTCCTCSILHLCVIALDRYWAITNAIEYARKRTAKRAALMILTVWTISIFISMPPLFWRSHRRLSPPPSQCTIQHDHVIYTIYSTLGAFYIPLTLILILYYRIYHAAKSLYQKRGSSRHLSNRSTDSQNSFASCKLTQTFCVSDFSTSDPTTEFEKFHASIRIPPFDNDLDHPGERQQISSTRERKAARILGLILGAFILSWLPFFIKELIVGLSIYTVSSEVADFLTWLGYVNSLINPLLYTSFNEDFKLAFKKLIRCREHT

molecular target: 5-hydroxytryptamine receptor 1E (Homo sapiens) (UniProt P28566); experiment: blockade of human serotonin 5HT1E receptor – cell-based, HTS, primary screen (AID 571); settings: CHO 5-HT1E Ga15 NFAT-bla reporter, FRET, antagonist; at 6 µM; hits give high values;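 also: signal is the 460 over 535 nm emission ratio of beta-lactamase substrate; 0% = agonist plus DMSO wells and 100% = wells without agonist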

Q: How did the inhibition turn out when `CN(C)c1cccc(C(=O)NCC2(N(C)C)CCCCC2)c1` was run?
A: inactive: -12.5%

Q: How did the inhibition turn out when `O=C(OC1CN2CCC1CC2)C(CO)(c1ccccc1)c1ccccc1` (configuration not stated) was run?
A: inactive: -5.8%
